Measurements published in patent publication US12534742B2, “Compound for regulating gene editing efficiency and application thereof” (Shanghai Institute of Organic Chemistry, Chinese Academy of …, priority 2018, dated 2026).

By UniProt entry, the sequences of proteins in these tests, tags left out.
UniProt Q99ZW2, whole entry: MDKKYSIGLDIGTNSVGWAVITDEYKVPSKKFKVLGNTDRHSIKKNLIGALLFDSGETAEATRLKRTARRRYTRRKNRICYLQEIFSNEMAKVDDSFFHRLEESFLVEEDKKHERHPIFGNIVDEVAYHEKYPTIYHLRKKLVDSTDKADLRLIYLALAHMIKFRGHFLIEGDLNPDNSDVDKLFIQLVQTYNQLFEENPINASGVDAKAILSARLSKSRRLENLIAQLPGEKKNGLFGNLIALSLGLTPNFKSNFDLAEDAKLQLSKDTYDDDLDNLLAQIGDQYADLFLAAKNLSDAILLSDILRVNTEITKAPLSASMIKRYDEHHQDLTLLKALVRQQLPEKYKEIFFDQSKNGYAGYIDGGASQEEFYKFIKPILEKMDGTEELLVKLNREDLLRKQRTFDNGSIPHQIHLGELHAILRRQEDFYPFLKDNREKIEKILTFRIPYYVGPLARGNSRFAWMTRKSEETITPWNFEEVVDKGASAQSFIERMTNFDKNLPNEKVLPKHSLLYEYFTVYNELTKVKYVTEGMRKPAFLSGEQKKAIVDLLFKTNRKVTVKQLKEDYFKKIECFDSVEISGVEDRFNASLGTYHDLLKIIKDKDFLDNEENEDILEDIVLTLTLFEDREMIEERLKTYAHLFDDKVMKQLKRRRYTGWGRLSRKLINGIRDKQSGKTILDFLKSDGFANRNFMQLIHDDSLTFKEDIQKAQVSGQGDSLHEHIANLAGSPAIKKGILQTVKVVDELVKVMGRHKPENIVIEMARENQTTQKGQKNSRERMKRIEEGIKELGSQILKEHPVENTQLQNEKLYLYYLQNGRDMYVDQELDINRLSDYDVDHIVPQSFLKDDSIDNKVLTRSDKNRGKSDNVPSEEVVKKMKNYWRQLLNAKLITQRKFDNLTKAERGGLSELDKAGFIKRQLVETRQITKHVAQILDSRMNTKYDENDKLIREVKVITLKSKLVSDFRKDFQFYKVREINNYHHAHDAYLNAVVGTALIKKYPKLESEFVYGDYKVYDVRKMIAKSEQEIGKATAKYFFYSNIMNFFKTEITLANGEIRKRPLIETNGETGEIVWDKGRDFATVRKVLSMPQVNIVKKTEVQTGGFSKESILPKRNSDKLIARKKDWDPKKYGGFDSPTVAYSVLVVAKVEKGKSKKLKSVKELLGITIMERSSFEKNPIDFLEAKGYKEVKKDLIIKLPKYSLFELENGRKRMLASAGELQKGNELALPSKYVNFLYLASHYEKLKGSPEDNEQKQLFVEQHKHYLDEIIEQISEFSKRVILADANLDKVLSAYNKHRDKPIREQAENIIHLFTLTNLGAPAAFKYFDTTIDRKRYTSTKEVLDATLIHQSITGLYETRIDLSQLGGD

Target: CRISPR/Cas9 from Streptococcus pyogenes (SpyCas9) (Streptococcus pyogenes serotype M1, UniProt Q99ZW2)
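Also: Cell-based reporter with a SpyCas9 target site placed in EGFP, where NHEJ repair of the cut restores the reading frame, read-out is the share of EGFP-positive cells, lowered by inhibitors.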

Compound | IC50 [µM]
C=CC#N | > 100
C=CC(N)=O | > 100
